Source: patent publication US20190211024A1 (priority 2016, published 2019)

system: cell culture; assay: Minimal toxic dose in vitro

Substance	Minimal toxic dose
2-Methyisulfonyl-4-tert-butyl-6-nitro-1,2,4-triazolo[5,1-c]1,2,3-triazine-7-one	>100 µg/mL
2-Methylsulfonyl-4-ethyl-6-nitro-1,2,4-triazolo[5,1-c]1,2,3, -triazine-7-one	>100 µg/mL
2-Methylsulfonyl-4-methyl-6-nitro-1,2,4-triazolo[5,1-cy]1,2,3-triazine-7-one	>100 µg/mL
2-Methylsulfonyl-4-pivaloyloxymethyl-6-nitro-1,2,4-triazolo[5,1-c]1,2,3-triazine-7-one	>100 µg/mL
2-iso-Propylsulfinyl-6-nitro-l2,4-triazolo[5,1-c]1,2,4-triazine-7-one	>200 µg/mL
Sodium salt of 2-methylthio-4-ethyl-6-(2amino-2′-carboxyethylthio)-1,2,4-triazolo[5,1-c]1,2,4-triazine-7-one hydrate	>100 µg/mL
Sodium salt of 2-methylthio-4-methyl-6-(2′-amino-2′-carboxyethylthio)-1,2,4-triazolo[5,1-c]1,2,4-triazine-7-one hydrate	>100 µg/mL
Sodium salt of 2-methylthio-4-pivaloyloxymethyl-6-(2+-amino-2′-carboxyethylthio)-1,2,4triazolo[5,1-c]1,2,4-triazine-7-one hydrate	200 µg/mL
Sodium salt of 2-methylthio-4-tert-butyl-6-(2′-amino-T-carboxyethylthio)-1,2,4-triazolo[5,1-c]1,2,4-triazine-7-one hydrate	200 µg/mL
Triethylammonium salt of (2′-amino-2′-carboxyethylthio)-6-nitro-1,2,4-triazolo[5,1-c][1,2,4]triazine hydrate	200 µg/mL
